Assay results reported in US20160339026A1, “TOPICAL COMPOSITIONS COMPRISING MODULATORS OF TRPM8” (Senomyx, Inc., priority 2015, published 2016).

Protein sequences, listed by entry. Tags and fused reporters are not part of them.
UniProt Q7Z2W7, whole entry: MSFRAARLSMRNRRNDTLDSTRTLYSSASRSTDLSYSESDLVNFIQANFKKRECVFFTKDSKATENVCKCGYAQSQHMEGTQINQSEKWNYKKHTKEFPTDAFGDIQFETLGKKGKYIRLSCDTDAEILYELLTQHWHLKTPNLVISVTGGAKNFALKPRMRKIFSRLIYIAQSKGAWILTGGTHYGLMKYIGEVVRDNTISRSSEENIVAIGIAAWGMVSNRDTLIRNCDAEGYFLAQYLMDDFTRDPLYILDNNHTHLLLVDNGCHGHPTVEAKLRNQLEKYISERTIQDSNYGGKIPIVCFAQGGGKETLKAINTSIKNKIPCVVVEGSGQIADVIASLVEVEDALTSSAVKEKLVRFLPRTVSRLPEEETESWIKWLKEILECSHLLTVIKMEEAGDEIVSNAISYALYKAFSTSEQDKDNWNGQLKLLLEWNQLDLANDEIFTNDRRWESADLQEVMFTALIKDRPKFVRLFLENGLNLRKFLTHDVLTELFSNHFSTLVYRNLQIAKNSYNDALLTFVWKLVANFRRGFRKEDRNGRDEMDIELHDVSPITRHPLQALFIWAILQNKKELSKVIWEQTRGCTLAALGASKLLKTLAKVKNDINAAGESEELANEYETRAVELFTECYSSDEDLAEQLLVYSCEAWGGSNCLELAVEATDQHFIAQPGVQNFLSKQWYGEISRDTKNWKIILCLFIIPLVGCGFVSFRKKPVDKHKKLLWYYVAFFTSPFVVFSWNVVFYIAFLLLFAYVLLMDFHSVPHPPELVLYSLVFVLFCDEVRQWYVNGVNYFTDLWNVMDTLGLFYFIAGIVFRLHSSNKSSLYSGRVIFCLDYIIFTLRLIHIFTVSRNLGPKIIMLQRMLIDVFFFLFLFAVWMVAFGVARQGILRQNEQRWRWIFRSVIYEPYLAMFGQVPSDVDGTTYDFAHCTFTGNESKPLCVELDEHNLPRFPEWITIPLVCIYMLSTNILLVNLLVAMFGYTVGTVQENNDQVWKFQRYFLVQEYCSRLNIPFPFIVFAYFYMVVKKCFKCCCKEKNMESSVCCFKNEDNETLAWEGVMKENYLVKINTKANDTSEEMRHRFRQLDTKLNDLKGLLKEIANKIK

Biological target: hTRPM8 (Homo sapiens, UniProt Q7Z2W7)
Assay: Cell line stably expressing TRPM8, agonist assay, compounds of Formula (III)
Details: Table 3.1
Protocol: A mammalian cell line derivative which stably expresses TRPM8 was used in biological assays in association with testing the present compounds with cool-tasting or -feeling properties (Servant et al. US 2007/0259354 A1 and references cited therein, which is incorporated herein by reference in their entirety). Typical compound concentrations tested were 50 μM, 20 μM, 10 μM, 5 μM, 2 μM, 1 μM, 0.5 μM, 0.1 μM, 0.05 μM, 0.01 μM, and other concentration points in between. The present compounds have shown strong activity as agonists of hTRPM8. Assay results for compounds are illustrated in Table 3.1 below. Specifically, the Compounds listed in Table 3.1, i.e., Compounds 3.A1 to Compounds 3.G1 are specific compounds described above falling within Formula (III).

EC50: 2350 nM
EC50 Ratio (WS3): 3.8
SMILES: CCC(CC)C(C)C(=O)N(C)CC(=O)c1ccccc1 (centres unmarked)
